By UniProt entry, the sequences of proteins in these tests, tags left out. Where a name states a change or a piece, a line headed by the entry shows the natural chain unless it says otherwise.
UniProt P43490: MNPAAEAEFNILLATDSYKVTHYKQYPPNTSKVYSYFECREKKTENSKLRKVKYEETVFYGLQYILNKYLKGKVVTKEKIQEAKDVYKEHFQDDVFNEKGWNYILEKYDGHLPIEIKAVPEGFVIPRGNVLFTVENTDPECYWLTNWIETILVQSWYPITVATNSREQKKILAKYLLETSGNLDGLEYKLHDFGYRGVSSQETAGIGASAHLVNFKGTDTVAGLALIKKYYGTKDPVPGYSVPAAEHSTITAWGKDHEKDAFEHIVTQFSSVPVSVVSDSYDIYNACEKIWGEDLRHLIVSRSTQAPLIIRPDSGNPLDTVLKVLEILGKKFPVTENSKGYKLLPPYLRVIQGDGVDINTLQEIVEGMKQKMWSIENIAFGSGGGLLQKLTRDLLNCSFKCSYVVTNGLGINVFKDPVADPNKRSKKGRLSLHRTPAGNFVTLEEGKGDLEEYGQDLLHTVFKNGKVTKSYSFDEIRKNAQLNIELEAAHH

The target in this experiment is NAMPT (Homo sapiens (Human), UniProt P43490). The following applies: read-out: TR-FRET Binding IC50 (μM) probe 1. Background: TR-FRET usually uses a lanthanide donor and a delayed reading to cut background.
By IC50 is commonly meant the point on the concentration scale where inhibition reaches its midpoint. As for `CCCn1cc(-c2ccc(NC(=O)N3Cc4ccccc4C3)cn2)cn1` [Example 325, N-[6-(1-propyl-1H-pyrazol-4-yl)pyridin-3-yl]-1,3-dihydro-2H-isoindole-2-carboxamide], the IC50 turned out to be 0.0987 µM. For the compound `O=C(Nc1ccc(C(=O)N2Cc3ccccc3C2)cc1)N1Cc2ccccc2C1` [Example 186, N-[4-(1,3-dihydro-2H-isoindol-2-ylcarbonyl)phenyl]-1,3-dihydro-2H-isoindole-2-carboxamide], the IC50 worked out at 0.145 µM. In the case of `CC(C)[C@@H](CO)NC(=O)c1ccc(NC(=O)N2Cc3ccccc3C2)cc1` [Example 174, N-(4-{[(2S)-1-hydroxy-3-methylbutan-2-yl]carbamoyl}phenyl)-1,3-dihydro-2H-isoindole-2-carboxamide], the IC50 turned out to be 0.12 µM. Regarding `CCCCCCOc1ccc(NC(=O)N2Cc3ccccc3C2)cc1` [Example 348, N-[4-(hexyloxy)phenyl]-1,3-dihydro-2H-isoindole-2-carboxamide], the IC50 is 1.56 µM. As to `O=C(Nc1ccc(C(=O)N2CCN(c3ccccn3)CC2)cc1)N1Cc2ccncc2C1` [Example 287, N-(4-{[4-(pyridin-2-yl)piperazin-1-yl]carbonyl}phenyl)-1,3-dihydro-2H-pyrrolo[3,4-c]pyridine-2-carboxamide], the concentration for half-maximal inhibition (IC50) turned out to be 0.00435 µM. For `CCn1cc(NC(=O)c2ccc(NC(=O)N3Cc4ccc(F)cc4C3)cc2)cn1` [Example 48, N-{4-[(1-ethyl-1H-pyrazol-4-yl)carbamoyl]phenyl}-5-fluoro-1,3-dihydro-2H-isoindole-2-carboxamide], the IC50 was 0.0186 µM. `N#Cc1ccc(N2CCN(C(=O)c3ccc(NC(=O)N4Cc5ccccc5C4)cc3)CC2)cc1` [Example 27, N-(4-{[4-(4-cyanophenyl)piperazin-1-yl]carbonyl}phenyl)-1,3-dihydro-2H-isoindole-2-carboxamide]: the IC50 is 0.0138 µM. Under `C[C@@H](NC(=O)c1ccc(NC(=O)N2Cc3ccccc3C2)cc1)c1cccc(C#N)c1` [Example 173, N-(4-{[(1R)-1-(3-cyanophenyl)ethyl]carbamoyl}phenyl)-1,3-dihydro-2H-isoindole-2-carboxamide] stands 0.115 µM; under `O=C(Nc1ccc(C(=O)N2CCN(c3nccc4occc34)CC2)cc1)N1Cc2ccccc2C1` [Example 6, N-(4-{[4-(furo[3,2-c]pyridin-4-yl)piperazin-1-yl]carbonyl}phenyl)-1,3-dihydro-2H-isoindole-2-carboxamide], 0.00425 µM.

For the compound `C=CCCC(=O)Nc1ccc(NC(=O)N2Cc3ccccc3C2)cc1` [Example 307, N-[4-(pent-4-enoylamino)phenyl]-1,3-dihydro-2H-isoindole-2-carboxamide], the IC50 was 0.0254 µM. With `O=C(Nc1ccc(C(=O)N2CCN(C(=O)c3ccco3)CC2)cc1)N1Cc2ccccc2C1` [Example 163, N-(4-{[4-(2-furoyl)piperazin-1-yl]carbonyl}phenyl)-1,3-dihydro-2H-isoindole-2-carboxamide], the IC50 is 0.0893 µM. In the case of `CCCNC(=O)c1ccc(NC(=O)N2Cc3ccc(-c4cn[nH]c4)cc3C2)cc1` [Example 281, N-[4-(propylcarbamoyl)phenyl]-5-(1H-pyrazol-4-yl)-1,3-dihydro-2H-isoindole-2-carboxamide], the IC50 was 0.0383 µM. For `O=C(Nc1ccc(N2CCN(C(=O)c3ccc(Cl)cc3)CC2)cc1)N1Cc2ccccc2C1` [Example 517, N-{4-[4-(4-chlorobenzoyl)piperazin-1-yl]phenyl}-1,3-dihydro-2H-isoindole-2-carboxamide], the IC50 worked out at 0.0758 µM. In the case of `O=C(Nc1ccc(C(=O)N2CCC[C@H]2C(F)(F)F)cc1)N1Cc2ccccc2C1` [Example 251, N-(4-{[(2S)-2-(trifluoromethyl)pyrrolidin-1-yl]carbonyl}phenyl)-1,3-dihydro-2H-isoindole-2-carboxamide], the IC50 worked out at 0.83 µM. As for `COc1ccc(CCNC(=O)c2ccc(NC(=O)N3Cc4ccccc4C3)cc2)c(OC)c1` [Example 140, N-(4-{[2-(2,4-dimethoxyphenyl)ethyl]carbamoyl}phenyl)-1,3-dihydro-2H-isoindole-2-carboxamide], the IC50 was found to be 0.0655 µM. Take `CC(C)C(=O)N1Cc2ccc(NC(=O)N3Cc4ccccc4C3)cc2C1` [Example 345, N-(2-isobutyryl-2,3-dihydro-1H-isoindol-5-yl)-1,3-dihydro-2H-isoindole-2-carboxamide]: the IC50 is 0.84 µM.

For the compound `O=C(NCc1cccc(OC(F)(F)F)c1)c1ccc(NC(=O)N2Cc3ccccc3C2)cc1` [Example 114, N-(4-{[3-(trifluoromethoxy)benzyl]carbamoyl}phenyl)-1,3-dihydro-2H-isoindole-2-carboxamide], the IC50 came out at 0.0461 µM. For `CC(C)COCCCNC(=O)c1ccc(NC(=O)N2Cc3ccccc3C2)cc1` [Example 108, N-{4-[(3-isobutoxypropyl)carbamoyl]phenyl}-1,3-dihydro-2H-isoindole-2-carboxamide], the IC50 stood at 0.0408 µM. In the case of `CC(C)(CO)NC(=O)c1ccc(NC(=O)N2Cc3ccccc3C2)cc1` [Example 235, N-{4-[(1-hydroxy-2-methylpropan-2-yl)carbamoyl]phenyl}-1,3-dihydro-2H-isoindole-2-carboxamide] it was 0.455 µM; in that of `N#Cc1cccc(C(=O)N2CCN(c3ccc(NC(=O)N4Cc5ccccc5C4)cc3)CC2)c1` [Example 518, N-{4-[4-(3-cyanobenzoyl)piperazin-1-yl]phenyl}-1,3-dihydro-2H-isoindole-2-carboxamide], 0.266 µM; in that of `CCN(CCOC)C(=O)c1ccc(NC(=O)N2Cc3ccccc3C2)cc1` [Example 255, N-{4-[ethyl(2-methoxyethyl)carbamoyl]phenyl}-1,3-dihydro-2H-isoindole-2-carboxamide], 0.969 µM. Regarding `O=C(N[C@H](CCO)c1ccccc1)c1ccc(NC(=O)N2Cc3ccccc3C2)cc1` [Example 115, N-(4-{[(1R)-3-hydroxy-1-phenylpropyl]carbamoyl}phenyl)-1,3-dihydro-2H-isoindole-2-carboxamide], the IC50 stood at 0.0465 µM. Under `CCCNC(=O)c1ccc(NC(=O)N2Cc3ccc(C(=O)N4CCOCC4)cc3C2)cc1` [Example 560, 5-(morpholin-4-ylcarbonyl)-N-[4-(propylcarbamoyl)phenyl]-1,3-dihydro-2H-isoindole-2-carboxamide] stands 5.02 µM; under `NCCCCCCNC(=O)c1ccc(NC(=O)N2Cc3ccccc3C2)cc1` [Example 66, N-{4-[(6-aminohexyl)carbamoyl]phenyl}-1,3-dihydro-2H-isoindole-2-carboxamide], 0.024 µM. Turning to `CSCCCNC(=O)c1ccc(NC(=O)N2Cc3ccccc3C2)cc1` [Example 141, N-(4-{[3-(methylthio)propyl]carbamoyl}phenyl)-1,3-dihydro-2H-isoindole-2-carboxamide], the IC50 was 0.0656 µM. With `CCC(CC)NC(=O)c1ccc(NC(=O)N2Cc3ccccc3C2)cc1` [Example 231, N-[4-(pentan-3-ylcarbamoyl)phenyl]-1,3-dihydro-2H-isoindole-2-carboxamide], the IC50 was found to be 0.414 µM.

Consider `O=C(NCCc1c[nH]c2ccccc12)c1ccc(NC(=O)N2Cc3ccccc3C2)cc1` [Example 97, N-(4-{[2-(1H-indol-3-yl)ethyl]carbamoyl}phenyl)-1,3-dihydro-2H-isoindole-2-carboxamide], for which the concentration for half-maximal inhibition (IC50) turned out to be 0.037 µM. With `CN(C)Cc1ccc2c(c1)CN(C(=O)Nc1ccc(-c3c[nH]c(=O)c4ccccc34)cc1)C2` [Example 389, 5-[(dimethylamino)methyl]-N-[4-(1-oxo-1,2-dihydroisoquinolin-4-yl)phenyl]-1,3-dihydro-2H-isoindole-2-carboxamide], the IC50 turned out to be 0.266 µM. Under `CNC(=O)CCCCCNC(=O)N1Cc2ccccc2C1` [Example 360, N-[6-(methylamino)-6-oxohexyl]-1,3-dihydro-2H-isoindole-2-carboxamide] stands 0.239 µM; under `O=C(Nc1ccc(N2CCN(C(=O)c3cnccn3)CC2)cc1)N1Cc2ccccc2C1` [Example 533, N-{4-[4-(pyrazin-2-ylcarbonyl)piperazin-1-yl]phenyl}-1,3-dihydro-2H-isoindole-2-carboxamide], 0.294 µM. On to `Cn1cc(-c2ccc(NC(=O)N3Cc4ccccc4C3)cc2)cn1` [Example 320, N-[4-(1-methyl-1H-pyrazol-4-yl)phenyl]-1,3-dihydro-2H-isoindole-2-carboxamide], for which the IC50 is 0.272 µM. As to `O=C(NCc1ccccc1)c1ccc(NC(=O)N2Cc3ccccc3C2)cc1` [Example 73, N-[4-(benzylcarbamoyl)phenyl]-1,3-dihydro-2H-isoindole-2-carboxamide], the IC50 was 0.0267 µM.

In the case of `N#CCNC(=O)c1ccc(NC(=O)N2Cc3ccccc3C2)cc1` [Example 180, N-{4-[(cyanomethyl)carbamoyl]phenyl}-1,3-dihydro-2H-isoindole-2-carboxamide], the IC50 worked out at 0.131 µM. `CC(C)OCCCNC(=O)c1ccc(NC(=O)N2Cc3ccccc3C2)cc1` [Example 125, N-{4-[(3-isopropoxypropyl)carbamoyl]phenyl}-1,3-dihydro-2H-isoindole-2-carboxamide]: the IC50 came out at 0.0518 µM. For `O=C(Nc1ccc(C(=O)N2CCN(c3cnccn3)CC2)cc1)N1Cc2ccc(C(F)(F)F)cc2C1` [Example 89, N-(4-{[4-(pyrazin-2-yl)piperazin-1-yl]carbonyl}phenyl)-5-(trifluoromethyl)-1,3-dihydro-2H-isoindole-2-carboxamide], the IC50 was found to be 0.0334 µM.

For the compound `O=C(CC1CCCC1)Nc1ccc(NC(=O)N2Cc3ccc(CO)cc3C2)cc1` [Example 315, N-{4-[(cyclopentylacetyl)amino]phenyl}-5-(hydroxymethyl)-1,3-dihydro-2H-isoindole-2-carboxamide], the IC50 was 0.00762 µM. For `CCN(C(=O)c1ccc(NC(=O)N2Cc3ccccc3C2)cc1)C(C)C` [Example 264, N-{4-[ethyl(isopropyl)carbamoyl]phenyl}-1,3-dihydro-2H-isoindole-2-carboxamide], the IC50 came out at 1.92 µM.

On to `CCCn1cc(-c2ccc(CNC(=O)N3Cc4ccccc4C3)cc2)cn1` [Example 366, N-[4-(1-propyl-1H-pyrazol-4-yl)benzyl]-1,3-dihydro-2H-isoindole-2-carboxamide], for which the IC50 worked out at 3.34 µM.

For the origin of these results see patent US9302989B2 (priority 2010, dated 2016).
